According to patent US20210070747A1, “2(1H)-QUINOLINONE DERIVATIVE” (priority 2017, published 2021):
Values after ≈ are worked out from the molar mass of the structure shown.

Columns and labels:
[1] = system: E. Coli ATCC 25922; assay: Test for evaluating antibacterial activity (E. coli), broth microdilution MIC; assay type: cell-based; conditions: Escherichia coli, ATCC25922, 18 h, read-out: MIC E. Coli ATCC 25922
[2] = system: N. gonorrhoeae ATCC 49226; assay: Test for evaluating antibacterial activity (N. gonorrhoeae), broth microdilution MIC; assay type: cell-based; conditions: Neisseria gonorrhoeae, ATCC49226, 24 h, read-out: MIC N. gonorrhoeae ATCC 49226

Row | SMILES | MIC [1] | MIC [2]
1 | CCCCCN(CCCCC)Cc1cc(C(=O)O)ccc1NC(=O)c1cc2cc(F)cc(NC)c2[nH]c1=O [Example 101, 3-[(dipentylamino)methyl]-4-{[6-fluoro-8-(methylamino)-2-oxo-1,2-dihydroquinoline-3-carbonyl]amino} benzoic acid] | 16 µg/mL (≈ 30.5 µM) | 0.03 µg/mL (≈ 0.0572 µM)
2 | CNc1cc(F)cc2cc(C(=O)Nc3ccc(CO)cc3CN(CCO)C3CCCCC3)c(=O)[nH]c12 [Example 124, N-[2-{[cyclohexyl(2-hydroxyethyl)amino]methyl}-4-(hydroxymethyl)phenyl]-6-fluoro-8-(methylamino)-2-oxo-1,2-dihydroquinoline-3-carboxamide] |  | 0.12 µg/mL (≈ 0.242 µM)
